Data taken from ChEMBL document CHEMBL3822429, “Identification of novel EZH2 inhibitors through pharmacophore-based virtual screening and biological assays” (Bioorg Med Chem Lett, 2016).

Tests used:
[1] = tested on: Toledo; experiment: Antiproliferative activity against human Toledo cells expressing wild-type EZH2 assessed as growth inhibition measured after 72 hrs by AlamaBlue assay; format: functional, cell-based
[2] = tested on: DB; experiment: Antiproliferative activity against human DB cells expressing EZH2 mutant assessed as growth inhibition measured after 72 hrs by AlamaBlue assay; format: functional, cell-based

COc1ccc2nc(Nc3nc(O)cc(CSc4nnnn4-c4ccccc4)n3)nc(C)c2c1
inhibition [1]: Dose-dependent effect
inhibition [2]: Dose-dependent effect
